How the values were obtained:
FKBP52 = FKBP52 (Homo sapiens, UniProt Q02790); test: Competitive fluorescence polarization assay, binding to FKBP52; conditions: read-out: FKBP52 Ki, FKBP52FK1, fluorescent tracer 20 nM final, 30 min room temperature
FKBP51 = FKBP51 (Homo sapiens, UniProt Q13451); test: Competitive fluorescence polarization assay, binding to FKBP51; conditions: read-out: FKBP51 Ki, FKBP51FK1, fluorescent tracer 20 nM final, 30 min room temperature
FKBP12 = FKBP12 (Homo sapiens, UniProt P62942); test: Competitive fluorescence polarization assay, binding to FKBP12

Amino acid sequences for entries named in this document (tags omitted). Residues count along the entry.
UniProt Q02790, 50-138 limits assumed: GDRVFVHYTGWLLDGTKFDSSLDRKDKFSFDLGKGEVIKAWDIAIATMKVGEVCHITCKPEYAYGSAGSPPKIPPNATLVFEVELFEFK
UniProt Q13451, 42-130 limits assumed: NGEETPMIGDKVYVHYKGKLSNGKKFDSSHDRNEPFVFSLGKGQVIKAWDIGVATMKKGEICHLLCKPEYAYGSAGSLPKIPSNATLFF
UniProt P62942, whole entry: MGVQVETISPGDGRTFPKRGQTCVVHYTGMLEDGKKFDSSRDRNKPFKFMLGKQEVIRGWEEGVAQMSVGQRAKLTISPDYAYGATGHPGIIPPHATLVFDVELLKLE

## CCC(C)(C)C(=O)C(=O)N1C2CCCC1C(=O)N(CCOc1ccc(OC)c(OC)c1)C2 (stereo not shown)
FKBP52
  Ki: > 100 µM
FKBP51
  Ki: > 100 µM
FKBP12; LE=(ΔG)/N, ΔG=−RTlnKi, RT=0.6, N non-hydrogen atoms
  FKBP12 ligand efficiency (LE): 0.24
FKBP12; read-out: FKBP12 Ki, fluorescence polarization, fluorescent tracer 20 nM final, 30 min room temperature
  Ki: 3.5 µM

From patent US9371322B2, “Bicyclic aza-amides for treatment of psychiatric disorders” (MAX-PLANCK-GESELLSCHAFT ZUR FÖRDERUNG DER WISSENSCHAFTEN …, priority 2012, dated 2016)
